## Ab-14 heavy chain CDR variants: yeast mating affinities

The measurements come from Li et al. 2023 (doi:10.1038/s41467-023-39022-2) through the FLAb antibody collection.

Target peptide (SARS-CoV-2 spike, HR2 region): PDVDLGDISGINAS

Parent: Ab-14, a human scFv built as VH, a 15-residue (Gly4Ser)3 linker, VL. Only the CDRs of the heavy chain vary.
VH: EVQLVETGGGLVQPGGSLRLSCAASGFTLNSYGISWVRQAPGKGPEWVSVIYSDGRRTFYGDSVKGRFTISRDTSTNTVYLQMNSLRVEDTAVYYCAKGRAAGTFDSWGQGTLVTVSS
VL: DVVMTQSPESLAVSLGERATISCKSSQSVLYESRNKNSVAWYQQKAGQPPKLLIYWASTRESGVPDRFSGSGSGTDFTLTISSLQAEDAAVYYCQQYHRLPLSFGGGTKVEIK

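The variants were designed computationally from a first round of random CDR variants and then made and measured. Their group label is 14H_GP_HC (GP: Gaussian process model; HC: hill climbing; a sequence that several methods proposed may carry one label only). Affinity was read by AlphaSeq, a pooled yeast mating assay with surface-displayed partners. After mating in shaken culture at 30 °C for 16 h, diploids were selected and their barcode pairs sequenced. The ratio of observed to expected reads was calibrated, replicate by replicate, on BCL2-family standards whose Kd was known from biolayer interferometry. The assay was run in six technical replicates.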

The parent's heavy chain CDRs are GFTLNSYGIS, VIYSDGRRTFYGDSVK, GRAAGTFDS; each variant's own CDRs replace them letter for letter. Affinities are written as log10 Kd with Kd in nM; a lower number is a better binder. The mean shown is taken over the replicates in which the pair was detected. "n.d." marks a missing value. The strain was present, yet no cells mated with the target were sequenced in that replicate, which points to weak or no binding. The parent sequence was in this pool as ten entries: three were never detected, three once, and four in most replicates, with averages from 0.34 to 2.37.

| CDR-H1 | CDR-H2 | CDR-H3 | log10 Kd, replicates | mean, log10 nM | control signals |
|---|---|---|---|---|---|
| GFFLNDYGIS | VIYSDGRRTFYGDSVK | GTVAGTFDS | -0.04 / 0.27 / 0.23 / -0.34 / 0.07 / -0.20 | 0.00 | 0/18 |
| GFSLKEYGIS | VIYSDGRRTFYGDSVK | GRAAVTFDQ | n.d. / n.d. / n.d. / n.d. / n.d. / n.d. | n.d. | 0/18 |
| GFQLNSYGIS | VIYSDGRRTFYIDHVK | GKAAGTFDS | n.d. / n.d. / n.d. / n.d. / n.d. / n.d. | n.d. | 0/18 |
| GFELNDYGIS | VIYSDGRRTEYMDSVK | GRAAGTFDS | 1.22 / 1.51 / 1.90 / 1.45 / 0.75 / n.d. | 1.36 | 0/18 |
| GFDLNSYGIS | VIYSDGRRTFYGDSVK | GRTAGCFNS | n.d. / n.d. / n.d. / n.d. / n.d. / n.d. | n.d. | 0/18 |
| GFTLNEYGIS | VIYSDGRRTFYSDAVK | GREAGTFDS | 0.26 / 0.06 / 0.13 / -0.19 / 0.05 / 0.32 | 0.11 | 0/18 |
| GFTLNSYGIS | VIYADGRRTFYGDSVK | GRHAGTFKI | n.d. / n.d. / n.d. / n.d. / n.d. / n.d. | n.d. | 0/18 |
| GFQLNDYGIS | VIYSDGRRTFYIDHVK | GKAAGTFDS | n.d. / n.d. / n.d. / 0.99 / n.d. / 1.23 | 1.11 | 0/18 |
| GFTLNEYGIS | VIYSDGRRTEYSDSVK | GRAAGTFDS | 1.79 / 1.48 / 0.79 / 0.97 / 1.70 / 0.95 | 1.28 | 0/18 |
| GFCLNDYGIS | VIYSDGRRTFYADSVK | GRAAGTFDM | n.d. / n.d. / n.d. / n.d. / n.d. / n.d. | n.d. | 0/18 |
| GFTLNSYGIS | VIYSDGRRTFYKDSVK | GLLAGTFDS | 1.29 / 1.06 / 2.74 / 2.66 / 2.69 / 1.78 | 2.04 | 0/18 |
| GFQLNSYGIS | VIYSDGMRTFYGDSVK | GRAAGTFDS | n.d. / n.d. / n.d. / n.d. / n.d. / n.d. | n.d. | 0/18 |
| GFTLNEYGIS | VIYSDGRRTFYTDSVK | GRAAGTFIS | n.d. / n.d. / n.d. / n.d. / n.d. / 1.77 | 1.77 | 0/18 |
| GFQLNSYGIS | VIYSDGRRTVYGDSVK | GRAAGTFDS | n.d. / 0.96 / n.d. / 1.31 / n.d. / 1.26 | 1.18 | 0/18 |
| GFTLNSYGIS | VIYSDGRRTFYSDSVK | GMAAGTFDT | 0.17 / 0.26 / -0.04 / 0.03 / -0.28 / -0.19 | -0.01 | 0/18 |
| GFTLNSYGIS | VIYSDGRRTFYGDSVK | GRAALTFDE | n.d. / n.d. / n.d. / n.d. / n.d. / n.d. | n.d. | 1/18 (1.52) |
| GFVLNDYGIS | VIYSDGRRTMYGDSVK | GRAAGTFDS | n.d. / n.d. / n.d. / n.d. / n.d. / n.d. | n.d. | 0/18 |
| GFTLNEYGIS | VIYSDGRRTFYGDSVK | GRTAGTFKQ | n.d. / n.d. / n.d. / n.d. / n.d. / 2.89 | 2.89 | 0/18 |
| GFDLNSYGIS | VIYSDGRRTFYGDGVK | GRAAGHFNS | n.d. / n.d. / n.d. / n.d. / n.d. / n.d. | n.d. | 0/18 |
| GFGLNEYGIS | VIYSDGRRTFYEDDVK | GRTAGTFDS | 0.41 / 0.80 / 0.53 / 0.59 / 0.57 / 0.99 | 0.65 | 0/18 |
| GFTLESYGIS | VIYADGRRTFYGDSVK | GRQAGTFDS | n.d. / n.d. / n.d. / n.d. / n.d. / n.d. | n.d. | 0/18 |
| GFTLNEYGIS | VIYSDGRRTFYGDRVK | GRAAVTFDV | n.d. / n.d. / n.d. / n.d. / n.d. / n.d. | n.d. | 0/18 |
| GNTLNEYGIS | VIYSDGRRTFYTDSVK | GRSAGTFDS | 0.81 / 1.31 / 1.18 / 1.31 / 2.51 / 2.61 | 1.62 | 0/18 |
| GFTLNEYGIS | VIYSDGRRTFYGDSVK | GQAAGTFDE | 1.17 / 0.92 / 0.53 / 0.21 / 1.21 / 1.52 | 0.93 | 1/18 (2.87) |
| GFSLNDYGIS | VIYSDGRRTFYGDSVK | GRQAGTFMS | n.d. / n.d. / n.d. / n.d. / n.d. / 1.51 | 1.51 | 0/18 |
| GFTLNSYGIS | VIYSDGMRTFYSDSVK | GRSAGTFDS | -0.04 / 0.41 / 0.18 / 0.00 / -0.25 / 0.41 | 0.12 | 1/18 (2.74) |
| GFTLNSYGIS | VIYSDGRRTFYSDSVK | GSDAGTFDS | n.d. / n.d. / n.d. / 2.33 / n.d. / n.d. | 2.33 | 1/18 (1.49) |
| KFTLNEYGIS | VIYSDGRRTFYGDSVK | GRHAGTFDS | n.d. / 0.99 / 1.21 / n.d. / n.d. / 1.19 | 1.13 | 0/18 |
| GFTLNEYGIS | VIYSDGRRTFYSDAVK | GRLAGTFDS | -0.04 / -0.26 / -0.25 / 0.05 / 0.03 / -0.11 | -0.10 | 0/18 |
| GFDLNEYGIS | VIYSDGRRTFYGDSVK | GRAAGTFDV | -0.32 / -0.08 / -0.15 / -0.22 / -0.58 / -0.21 | -0.26 | 1/18 (1.81) |
| GFQLNDYGIS | VIYSDGRRTFYIDTVK | GKAAGTFDS | 0.99 / n.d. / n.d. / n.d. / n.d. / 2.74 | 1.87 | 0/18 |
| GFSLNSYGIS | VIYSDGRRTFYGDSVK | GRTAGAFNS | n.d. / n.d. / n.d. / n.d. / n.d. / n.d. | n.d. | 0/18 |
| GFTLNSYGIS | VIYSDGRRTFYDDSVK | GLEAGTFDS | 1.20 / 1.02 / 0.57 / 1.01 / 0.36 / 0.60 | 0.79 | 0/18 |
| GFDLNSYGIS | VIYSDGRRTFYGDSVK | GRAAWTFNK | n.d. / n.d. / n.d. / n.d. / n.d. / n.d. | n.d. | 0/18 |
| GFDLNSYGIS | VIYSDGRRTFYGDSVK | GRSAGTFNS | n.d. / n.d. / n.d. / n.d. / n.d. / n.d. | n.d. | 1/18 (1.00) |

Extract of 6 entries:

CDR-H1	CDR-H2	CDR-H3	log10 Kd, replicates	mean, log10 nM	control signals
GFGLNEYGIS	VIYSDGRRTFYEDDVK	GRTAGTFDS	0.41 / 0.80 / 0.53 / 0.59 / 0.57 / 0.99	0.65	0/18
GFSLNDYGIS	VIYSDGRRTFYGDSVK	GRQAGTFMS	n.d. / n.d. / n.d. / n.d. / n.d. / 1.51	1.51	0/18
GFQLNDYGIS	VIYSDGRRTFYIDTVK	GKAAGTFDS	0.99 / n.d. / n.d. / n.d. / n.d. / 2.74	1.87	0/18
GFTLNEYGIS	VIYSDGRRTFYGDSVK	GRTAGTFKQ	n.d. / n.d. / n.d. / n.d. / n.d. / 2.89	2.89	0/18
GFDLNEYGIS	VIYSDGRRTFYGDSVK	GRAAGTFDV	-0.32 / -0.08 / -0.15 / -0.22 / -0.58 / -0.21	-0.26	1/18 (1.81)
GFTLNSYGIS	VIYSDGRRTFYSDSVK	GSDAGTFDS	n.d. / n.d. / n.d. / 2.33 / n.d. / n.d.	2.33	1/18 (1.49)

As a blank, each scFv also met three strains without target: over all heavy chain designs, 1% of these pairings were detected, typically at 2.08 and seldom below 0.84. Also given: how often the same scFv was detected with the empty control strains, with their mean in brackets. The range of this assay differs from that of the first round, and the authors advise against merging the two. In the paper, a design with two or fewer of six values counts as a poor binder.